The results in this text go back to US11021454B2, “Type of aryl benzofuran amidated derivative and medical use thereof” (CHINA PHARMACEUTICAL UNIVERSITY, priority 2016, dated 2021).

The test system of assay [1] is LPS-stimulated macrophage RAW 264.7. The assay can be described thus: Scavenging of superoxide anion in LPS-stimulated macrophage RAW 264.7 (2-OH-E+ by LC-MS). Format: cell-based. Conditions: LPS-stimulated RAW 264.7. As to the method: The antioxidant activity (the ability to scavenge superoxide anion) of the synthesized benzofuran amidated derivative is evaluated by a cell model.
After phagocytosis of bacteria, senescent denatured cells, immune complexes or oxidized low-density lipoproteins, mammalian macrophages cells enter a functional activation state, with enhanced intracellular lysosomal function and increased ROS levels, and they secrete and synthesize inflammatory cytokines. Lipopolysaccharide (LPS) is the main component of the cell wall of Gram-negative bacteria and is the main material basis for its pathogenesis; it can stimulate the production of monocytes/macrophages and release a large amount of reactive oxygen species (mainly including O2^− and H2O2), inflammatory factors such as nitric oxide (NO), IL-1β and Tumor necrosis factor-α (TNF-α) that are involved in the acute phase response of the body, causing inflammatory damage to the body. The present invention utilizes the LPS-stimulated macrophage model to evaluate the antioxidant activity of benzofuran amidated derivatives to scavenge superoxide anion at the cellular level.
13.1 Preparation of Reagents and Standard Solutions
(2) LPS: accurately weigh the appropriate amount of LPS, and prepare a sample stock solution of 0.1 g/ml, with DMEM and store at −20° C. for later use.
(3) Probe Stabilizer DTPA: Weigh accurately the amount of DTPA, prepare a 20 mM sample stock solution with DMSO, dilute to 100 µM with PB, and store at 4° C. for use.
(4) HE: Prepare a 20 mmol/L stock solution by dissolving the probe with dimethyl sulfoxide under anaerobic and dark conditions, and store at −80° C. in the dark. Take it out before use, prepare a 10 μmol/L solution with DMEM, place it on ice and store it in the dark.
LPS stimulated macrophage RAW 264.7 modeling and administration:
(1) RAW 264.7 cells are cultured in Petri dishes (60 mm), 4 mL per dish, and incubated in a 5% CO2 incubator with saturated humidity at 37° C. The experiment is divided into blank group, model group and drug-administered group. The model group and the drug-administered group are respectively added with the modeling agent LPS (prepared with DMEM) and the optimal LPS concentration is 0.1 μg/mL, while the modeling time is 24 h; take vitamin E as a positive control.
(2) After 12 h of cell culture, the supernatant is discarded, and the test drug with a final concentration of 10 μM containing 0.1 μg/mL LPS medium is added, and two parallel holes are provided for each sample to be tested.
(3) Continue to culture in a cell culture incubator for 24 h, the supernatant is discarded, the cells are washed with PBS, and added to DMEM medium containing the probe HE (10 μM) and cultured in the dark for 30 min.
(4) The cells are then washed twice with ice-cold PBS/(100 μM) DTPA, then added 1 mL PBS/(100 μM) DTPA, before the cells are divided into two with a spatula (700 μL and 300 μL) and collected into EP tubes; then they are centrifuged at 13,000 rpm for 10 min at 4° C., the supernatant is removed, and the cell pellet are stored at −80° C. for future use. The first one contains 700 μL cell solution for the determination of LC-MS content of the test substance 2-OH-E^+, while the second one contains 300 μL cell solution for the determination of cell protein concentration.
13.3 LC-MS Analysis Conditions, Sample Pretreatment and Data Processing Methods
(1) LC-MS chromatographic conditions: instrument: Agilent 1100 series LC-QMS; column: Agilent Zorbax SB-Aq (4.6×50 mm, 1.8 μm); mobile phase: 0.1% formic acid-water (phase A); 0.1% formic acid-acetonitrile (B); gradient conditions: 0˜2 min, 5%˜30% B; 2˜5 min, 30% B; 5˜7 min, 30%˜100% B; 7˜10 min, 100% B; flow rate: 1 mL/min; MS condition: positive ion mode, SIM (SIM1: 1.2˜3 min [M+H]^+288 (galantamine); 3˜10 min [M]^+330 (2-OH-E^+)); cracking voltage: 120 V; nitrogen flow rate: 10.0 L/min; […]

Assay [2] relates to Normal hepatocyte LO2. The assay can be described thus: Inhibition of uric acid production in xanthine-modelled hepatocyte cell model. The assay is classed as cell-based. Conditions: Homo sapiens, L02, LO2 cells, 10 μM xanthine, 24 h, read-out: Inhibition rate (%) of uric acid. As to the method: The effect of benzofuran amidated derivatives on uric acid production is evaluated using a cell model.
(2) Experimental procedure: Normal hepatocyte LO2 are inoculated in a 6-well plate (plate density 1×10^6 cells/mL), and cell experiments are performed after 4 hours of plating. The experiment is divided into blank group, model group and drug-administered group; the model group and the drug-administered group are respectively added with the modeling agent xanthine (prepared with DMSO as a stock solution), while the blank group is added with the same volume of DMSO, and the Febuxostat is used as a positive control.
(3) Pre-treatment of mass spectrometry: take 100 μL of the medium collected, add MeOH 400 μL, CHCl3 100 μL and H2O 300 μL, perform vortex mixing, and centrifuging at 20000 g for 10 min, then take the upper layer for concentration and dry. Reconstitute H2O 100 μL, and add 10 μL of internal standard substance galantamine (1.25 μM) (final concentration 0.125 μM), centrifuge at 13,000 rpm for 10 min, and take the upper layer for LC-MS analysis.

Consider `COC(=O)[C@H](Cc1ccc(O)c(O)c1)NC(=O)/C=C/c1ccc(O)c2oc(-c3ccc(O)c(O)c3)cc12` [Compound 5a, Methyl (S,E)-3-(3,4-dihydroxyphenyl)-2-(3-(2-(3,4-dihydroxyphenyl)-7-hydroxybenzofuran-4-yl)acrylamido)propanoate], for which, in assay [1], the “superoxide anion scavenging activity compared with Ve” value is “better superoxide anion scavenging activity than Ve”.
As to `COC(=O)[C@@H](Cc1ccc(O)c(O)c1)NC(=O)/C=C/c1ccc(O)c2oc(-c3ccc(O)c(O)c3)cc12` [Compound 5b], the “superoxide anion scavenging activity compared with Ve” value in assay [1] is recorded as “better superoxide anion scavenging activity than Ve”. In assay [2], the inhibition at 10 µM is 28.6%, the inhibition at 30 µM amounted to 46.1% and the inhibition at 50 µM came out at 62.6%.
With `COC(=O)[C@H](C)NC(=O)/C=C/c1ccc(O)c2oc(-c3ccc(O)c(O)c3)cc12` [Compound 5c, Methyl (E)-(3-(2-(3,4-dihydroxyphenyl)-7-hydroxybenzofuran-4-yl)acryloyl)-L-alaninate], the “superoxide anion scavenging activity compared with Ve” value in assay [1] is on record as “better superoxide anion scavenging activity than Ve”.
In the case of `O=C(/C=C/c1ccc(O)c2oc(-c3ccc(O)c(O)c3)cc12)N[C@H](Cc1ccc(O)c(O)c1)C(=O)O` [Compound 6b, (R,E)-3-(3,4-dihydroxyphenyl)-2-(3-(2-(3,4-dihydroxyphenyl)-7-hydroxybenzofuran-4-yl)acrylamido) propanoic Acid], the “superoxide anion scavenging activity compared with Ve” value in assay [1] was “better superoxide anion scavenging activity than Ve”.
Consider `O=C(/C=C/c1ccc(O)c2oc(-c3ccc(O)c(O)c3)cc12)N[C@@H](Cc1ccccc1)C(=O)O` [Compound 6d, (E)-(3-(2-(3,4-dihydroxyphenyl)-7-hydroxybenzofuran-4-yl)acryloyl)-L-phenylalanine], for which the “superoxide anion scavenging activity compared with Ve” value in assay [1] is “better superoxide anion scavenging activity than Ve”.
In the case of `O=C(/C=C/c1ccc(O)c2oc(-c3ccc(O)c(O)c3)cc12)N[C@@H](Cc1ccc(O)cc1)C(=O)O` [Compound 6e, (E)-(3-(2-(3,4-dihydroxyphenyl)-7-hydroxybenzofuran-4-yl)acryloyl)-L-tyrosine], the “superoxide anion scavenging activity compared with Ve” value in assay [1] is recorded as “better superoxide anion scavenging activity than Ve”. Besides, in assay [2], the inhibition at 10 µM stood at 31.5%, the inhibition at 30 µM is 41.6% and the inhibition at 50 µM was 57.2%.

The term inhibition denotes the change of the read-out against control, counted positive when it falls.
